Results as given in ChEMBL document CHEMBL1135946, “Design, synthesis and biological activity of novel non-amidine factor Xa inhibitors. Part 1: P(1) structure-activity relationships of the substituted 1-(2-Naphthyl)-1H-pyrazole-5-carboxylamides” (Bioorg Med Chem Lett, 2002).

By UniProt entry, the sequences of proteins in these tests, tags left out. Residues count along the entry.
UniProt P00742, 41-179 limits assumed: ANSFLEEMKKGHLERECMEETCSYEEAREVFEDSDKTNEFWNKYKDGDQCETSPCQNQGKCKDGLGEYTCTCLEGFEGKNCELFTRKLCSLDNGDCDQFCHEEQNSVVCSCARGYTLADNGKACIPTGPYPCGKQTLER
UniProt P00742, 235-488 limits assumed: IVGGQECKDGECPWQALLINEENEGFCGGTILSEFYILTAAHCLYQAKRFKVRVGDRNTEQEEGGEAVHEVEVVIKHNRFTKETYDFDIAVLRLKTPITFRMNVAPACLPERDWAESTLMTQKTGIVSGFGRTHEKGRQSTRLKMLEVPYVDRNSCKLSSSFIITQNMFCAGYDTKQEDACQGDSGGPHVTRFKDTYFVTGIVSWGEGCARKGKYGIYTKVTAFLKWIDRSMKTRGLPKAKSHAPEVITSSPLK

Molecular target: Coagulation factor X (Homo sapiens, UniProt P00742)
Experiment: Inhibitory activity against coagulation factor Xa

IC50: 3.3 µM
SMILES: COc1ccc2cc(-n3nc(C)cc3C(=O)Nc3ccc(-c4ccccc4S(N)(=O)=O)cc3)ccc2c1
